Laboratory results: patent publication US20110136877A1, “2-PHENYL PHENOXYACETIC ACIDS USEFUL FOR TREATING INFLAMMATORY DISORDERS” (LIGAND PHARMACEUTICALS INC., priority 2008, published 2011)
pIC50: −log10 of the molar value.

By UniProt entry, the sequences of proteins in these tests, tags left out. Where a name states a change or a piece, a line headed by the entry shows the natural chain unless it says otherwise.
UniProt Q9Y5Y4: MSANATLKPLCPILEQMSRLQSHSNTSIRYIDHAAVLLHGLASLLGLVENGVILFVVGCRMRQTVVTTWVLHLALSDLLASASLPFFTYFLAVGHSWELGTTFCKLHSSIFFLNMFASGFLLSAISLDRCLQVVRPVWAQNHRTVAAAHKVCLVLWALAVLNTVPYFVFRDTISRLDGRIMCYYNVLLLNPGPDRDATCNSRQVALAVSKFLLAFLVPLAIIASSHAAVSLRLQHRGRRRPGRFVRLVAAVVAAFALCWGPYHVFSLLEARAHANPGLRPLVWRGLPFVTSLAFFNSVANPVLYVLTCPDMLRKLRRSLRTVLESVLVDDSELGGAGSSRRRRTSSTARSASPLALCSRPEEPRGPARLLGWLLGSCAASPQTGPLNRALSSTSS

Target: human CRTH2 (Homo sapiens, UniProt Q9Y5Y4)
Assay: [35S]GTPγS binding assay (SPA)
Format: biochemical
Details: read-out: CRTH2 GTPγS assay IC50; membranes from CHO-K1 cells stably expressing human CRTH2; 60 nM DHK-PGD2
Method: [^35S]GTPγS Binding Assay
SPA [^35S]GTPγS binding was performed on membranes from CHO-K1 cells stably expressing human CRTH2. To a white, clear-bottomed 384-well plate, 4 μg membrane protein was incubated in the binding buffer (20 mM HEPES, pH 7.4, 10 mM MgCl2, 300 mM NaCl, 0.2% BSA) with 60 nM DHK-PGD2, 500 pM [^35S]GTPγS, 10 μM GDP, and 100 μg wheat germ agglutinin-coupled SPA beads (GE Healthcare) with and without increasing concentrations of compounds. The final assay volume was 40 μL and contained 1% DMSO. Samples were incubated for 2 h at ambient temperature. Plates were centrifuged 5 min at 1500 rpm. Plates were read after an additional 4 h using the Trilux 1450 Microbeta (PerkinElmer) with a 30 sec/well reading time.

With `CN(Cc1cccc(-c2cc(C(F)(F)F)ccc2OCC(=O)O)c1)C(=O)Oc1cccnc1` the pIC50 was 6.00 to 7.00.
